We go through 1 compound from PMC9649909, “Wnt-pathway inhibitors with selective activity against triple-negative breast cancer: From thienopyrimidine to quinazoline inhibitors” (Frontiers in Pharmacology, 2022).

In this test the test system is non-cancerous breast epithelial cell line MCF10a. The test can be described thus: MTT survival assay MCF10a. The test is classed as cell-based. The settings on record: Table S2. The protocol: Indicated TNBC cell lines were detached and resuspended at 120,000 cells/ml and added into each well of a transparent 384-well plate in the final volume of 20 µl/well. The cells were maintained in DMEM containing 10% FBS at 37°C, 5% CO2 overnight. Next day, the medium in each well was replaced by 40 μl of the fresh one containing the indicated concentrations of compounds. In case of drug combination experiments, each compound dilution was delivered in corresponding well in 20 μl of medium. […] After incubation for 3–4 days, depending on the cell line, the medium in each well was replaced by 25 μl of 0.5 mg/ml Thiazolyl blue solution in 1xPBS following by incubation for 3 h at 37°C. Then the solution was removed and 25 μl DMSO was added into each well. Absorbance at 510 nm was measured in a Tecan Infinite M200 PRO plate reader.

`Clc1ccc(CNc2ncnc3ccccc23)cc1` [Compound 9e, N-(4-chloro)quinazolin-4-amine]: the “MTT MCF10 Comments” value is recorded as “Inactive”.
